High-throughput results: PubChem, National Center for Advancing Translational Sciences (NCATS)
An excerpt weighted towards active compounds, which were near 3.7% of everything screened.
A549 tox-1 = counter-screen for Nrf2 inhibitors: cytotoxicity in A549 cells. A549 ARE-Fluc cells, CellTiter-Fluor viability, 18-24 h. AID 504648. 0.16% of 390,000 active. Potency, µM (highest dose often 46 µM), for inactives: at the top dose activity change, negative = cytotoxicity, usual class: inhibitors; further: potency means the concentration at half of the fitted maximal effect; on the % scale 0 is the no-effect control and ±100 the full control effect
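A549 ARE-Fluc cells in 5% FBS OPTI-MEM, 5000 cells/well, rested 2 h then exposed to compounds in concentration-response for 18-24 h at 37 °C. Viability by CellTiter-Fluor fluorescence (Ex 405/Em 525) after 30 min; luciferase luminescence (BugLite, 15 min, RT) read afterwards.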
p53 reactivation = re-activators of mutant p53. H1299 p53-A138V BP100-luciferase reporter, luminescence, 24 h. Potency, µM (titrated, usually from 92.2 µM), for the others: top-dose activity change, positive = activation, most hits filed as activators. 0.063% of 320,000 active; further: potency means the concentration at half of the fitted maximal effect; % of control where 0% means no effect; nearly all actives have a fitted effect of over 45% in size
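p53-null H1299 cells stably carrying temperature-sensitive p53-A138V and a BP100-luciferase reporter were pinned with compounds (4-point, 1:5 series) and held 24 hrs at 37 deg C. Luminescence was read 10 min after detection reagent.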
miR-21 reporter = raises the signal of a miR-21 reporter | HeLa miR-21 FLuc reporter, luciferase, 48 h | Potency, µM (highest dose often 38.3 µM), inactives show at the highest dose reporter change, positive = more light | 340,000 tested, under 10 active | AID 2288; active = well fitted rising curve with a large enough effect; inconclusive = small, poorly fitted or top-dose-only effect; inactive = no such curve, though single readings can be large or run the other way;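 note: % of control where 0% means no effect; miR-21 action dims this reporter so a rising signal means less miR-21 action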
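Luminescence from a firefly luciferase reporter carrying a miR-21 binding site downstream, stably expressed under a CMV promoter in HeLa cells that make miR-21 endogenously, reports miRNA modulation after 48 h compound exposure up to approximately 40uM final.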
ClpP mod = qHTS Assay for Activators of ClpP. purified B. subtilis ClpP, FRET peptide cleavage, 20 min. Potency, µM (top dose mostly 57.5 µM), for the others: at the highest dose activity change, negative = active. 1.9% of 340,000 active; active means well fitted falling curve with a large enough effect; inconclusive means small, poorly fitted or top-dose-only effect; inactive means no such curve, though single readings can be large or run the other way; further: potency means the concentration at half of the fitted maximal effect; the source files actives as falling curves though it sought activators and does not explain the sign; nearly all actives have a fitted effect of over 65% in size
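FRET quenching reversal measured ClpP activation: 10 microg/mL B. subtilis ClpP at pH 8 with the FRET-FV decapeptide, read at 430 nm after 320 nm excitation. The 20-min minus 0-min signal was scaled between DMSO/no-enzyme wells and ADEP (5.8 microM final).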
Nrf2 block = blocks Nrf2 signaling; A549 ARE-Fluc reporter, luciferase luminescence, 18-24 h; Potency, µM (highest dose often 46 µM), without a hit: at the top dose activity change, negative = inhibition, usual class: inhibitors; 2.1% of 360,000 active; further: potency means the concentration at half of the fitted maximal effect; on the % scale 0 is the no-effect control and ±100 the full control effect; nearly all actives have a fitted effect of over 60% in size
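Nrf2 activity is the BugLite luminescence, read 15 min after reagent at room temperature, following CellTiter-Fluor cytotoxicity readout (30 min, 37C). Compound titrations were applied for 18-24 h to 5000 A549 ARE_Fluc cells/well in 5% FBS OPTI-MEM.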
Nrf2 activator = Nrf2 pathway activation; AREc32 ARE-luciferase reporter (MCF7-derived line), luminescence, 24 h; Potency, µM (top dose mostly 46.1 µM), inactives show at the highest dose activation, usual class: activators; 0.31% of 410,000 active; AID 624171; further: potency means the concentration at half of the fitted maximal effect; % of control where 0% means no effect; nearly all actives have a fitted effect of over 65% in size
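Luminescent ARE reporter assay in AREc32_Fluc cells: overnight plating at 37 deg C, 24 hr compound incubation, Steady-Glo added, 30 min RT before reading.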
FLuc enzyme inh = counter-screen for Nrf2 inhibitors: firefly luciferase enzyme inhibition. shares compounds with Nrf2 block. 4% of 1,400 active. purified firefly luciferase, luminescence inhibition. Potency, µM (series often up to 57.5 µM), for the others: at the highest dose activity change, negative = inhibition, most hits filed as inhibitors; further: potency means the concentration at half of the fitted maximal effect; on the % scale 0 is the no-effect control and ±100 the full control effect; nearly all actives have a fitted effect of over 65% in size
A549 tox-2 = A549 cytotoxicity, Nrf2 inhibitor counterscreen. shares compounds with Nrf2 block. A549 ARE-Fluc cells, cytotoxicity counterscreen. Potency, µM (top dose mostly 46.1 µM), for inactives: at the top dose activity change, negative = cytotoxicity, hits mostly inhibitors. 2% of 1,400 active. AID 720523;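 further: potency means the concentration at half of the fitted maximal effect; cells exposed to compounds for 18 to 24 hours; on the % scale 0 is the no-effect control and ±100 the full control effect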
Nrf2 ARE inh = Nrf2 inhibition confirmed, A549 ARE-luciferase. A549 ARE-firefly luciferase reporter, luminescence. Potency, µM (top dose mostly 46.1 µM), without a hit: at the top dose activity change, negative = inhibition, actives largely listed as inhibitors. shares compounds with Nrf2 block. 74% of 1,400 active; further: potency means the concentration at half of the fitted maximal effect; on the % scale 0 is the no-effect control and ±100 the full control effect; nearly all actives have a fitted effect of over 65% in size
Numbers without * were called inactive; u = inconclusive; x = no result. Unless noted, the call rests on the fitted dose curve; in most records, active means well fitted curve in the direction sought with a large enough effect; inconclusive means small, poorly fitted or top-dose-only effect, or another doubt; inactive means no such curve, though single readings can be large; an effect the other way counts as inactive or inconclusive.

No. | Molecule | A549 tox-1 | p53 reactivation | miR-21 reporter | ClpP mod | Nrf2 block
1 | COc1ccc(CCNC(=O)C(C)n2c(=O)cc(-c3ccccc3)c3c(C)nn(C)c32)cc1OC (stereo not given) | -1% | x | -13% | -8% | -43%
2 | O=C1C(SCCO)=C(SCCO)C(=O)c2ccccc21 | u | -18% | x | 2% | 26µM*
3 | CC1=C(SCc2ccccc2)C(=O)c2ccccc2C1=O | -13% | x | x | x | -14%
4 | COc1ccc(CNS(=O)(=O)c2cnc(N)nc2)c(OC)c1 | -3% | x | -3% | -3% | x
5 | O=C(Nc1ccc(-c2nnc3n2CCCCC3)cc1)c1cc2ccccc2o1 | -5% | -9% | -17% | x | -27%
6 | Cc1c(C(=O)Nc2ccc(-c3nnc4n3CCCCC4)cc2)oc2c1ccc1ccccc12 | u | -16% | 17% | 1% | 9.2µM*
7 | O=C(NCc1ccccc1Cl)c1cnc2sc(N3CCOCC3)nn2c1=O | 0% | x | 1% | 4% | 7%
8 | CC(Sc1nnc(-c2ccc(Cl)cc2Cl)n1Cc1ccccc1)C(=O)Nc1nccs1 (stereo not given) | -25% | -2% | 22% | -5% | u
9 | Cc1nnc(SC(C)C(=O)Nc2ccc(Cl)cn2)n1Cc1ccccc1 (stereo not given) | u | -5% | -1% | 0% | 9.2µM*
10 | O=C(Cn1nc(N2CCN(c3ccccc3)CC2)ccc1=O)Nc1ccc(F)cc1F | -3% | x | -11% | 0% | 1%

No. | Nrf2 activator | FLuc enzyme inh | A549 tox-2 | Nrf2 ARE inh
1 | 4% | x | x | x
2 | -4% | x | x | x
3 | -2% | x | x | x
4 | 1% | x | x | x
5 | 1% | x | x | x
6 | -3% | x | x | x
7 | -1% | x | x | x
8 | 3% | x | x | x
9 | 0% | -1% | -2% | u
10 | 3% | x | x | x

Some of these compounds in order of molar mass, low to high:
No. | Molecule | A549 tox-1 | p53 reactivation | miR-21 reporter | ClpP mod | Nrf2 block
3 | CC1=C(SCc2ccccc2)C(=O)c2ccccc2C1=O | -13% | x | x | x | -14%
4 | COc1ccc(CNS(=O)(=O)c2cnc(N)nc2)c(OC)c1 | -3% | x | -3% | -3% | x
1 | COc1ccc(CCNC(=O)C(C)n2c(=O)cc(-c3ccccc3)c3c(C)nn(C)c32)cc1OC (stereo not given) | -1% | x | -13% | -8% | -43%

No. | Nrf2 activator | FLuc enzyme inh | A549 tox-2 | Nrf2 ARE inh
3 | -2% | x | x | x
4 | 1% | x | x | x
1 | 4% | x | x | x

Continued.
No. | Molecule | A549 tox-1 | p53 reactivation | miR-21 reporter | ClpP mod | Nrf2 block
11 | O=C(Nc1ccc(F)cc1)c1ccc(Cn2nc(N3CCN(c4ccccc4)CC3)ccc2=O)o1 | u | x | u | 0% | 8.2µM*
12 | COC(=O)c1c(-c2ccc(S(C)(=O)=O)cc2)sc2cc(OC)ccc12 | 1% | u | x | 4% | u
13 | COc1ccc2c(C(=O)NCc3ccc4c(c3)OCO4)c(-c3ccc(S(C)(=O)=O)cc3)sc2c1 | u | -12% | x | 4% | 7.3µM*
14 | COC(=O)CCN1CCC2CC1c1cc(-c3cccc(C)c3)ccc12 (stereo not given) | 1% | x | x | 3% | 9%
15 | Cc1cc(C(C)(C)C)cc(C)c1C[n+]1ccc2ccccc2c1 | -18% | -8% | u | -1% | 3.7µM*
16 | Nc1c(Cl)ncnc1N/N=C/c1ccccn1 | u | u | -27% | -4% | 5.2µM*
17 | N#CC[n+]1cccc(Br)c1 | x | x | x | -1% | x
18 | COc1ccc(NS(=O)(=O)c2cccc(NC(=O)c3ccc(Cl)nc3)c2)cc1 | u | u | u | x | 0.58µM*
19 | O=C(Nc1cccc(S(=O)(=O)Nc2ccc(Cl)cc2)c1)c1ccc(Cl)nc1 | u | 2% | u | -3% | 3.3µM*
20 | O=C(Nc1ccc(NS(=O)(=O)c2ccccc2)cc1)c1ccc(Cl)cc1 | -2% | 4% | -6% | -7% | 3%

No. | Nrf2 activator | FLuc enzyme inh | A549 tox-2 | Nrf2 ARE inh
11 | -1% | -13% | -28% | 2.6µM*
12 | 3% | x | x | x
13 | 0% | -2% | u | 16µM*
14 | 1% | x | x | x
15 | -1% | 3% | -5% | 2.3µM*
16 | 12% | u | u | 2.1µM*
17 | x | x | x | x
18 | 0% | 0% | -5% | 1.6µM*
19 | 0% | -16% | -22% | 4.1µM*
20 | 0% | x | x | x
